Measured values from patent US20220331267A1, “METHODS AND COMPOSITIONS FOR TREATMENT OF DEMYELINATING DISORDERS” (Rush University Medical Center, priority 2019, published 2022).

Experiments:
[1] = target: T1, flpparβ (Mus musculus, UniProt P35396); experiment: PPRE-luciferase assay in Pparb-null OPCs transduced with GFPflpparβ; assay type: cell-based; conditions: GFPflpparβ-infected Pparb-null OPCs, increasing doses
T1 construct: host or cells: Pparb-null mouse primary OPCs (lentiviral transduction)
T1 sequence (P35396 1-440): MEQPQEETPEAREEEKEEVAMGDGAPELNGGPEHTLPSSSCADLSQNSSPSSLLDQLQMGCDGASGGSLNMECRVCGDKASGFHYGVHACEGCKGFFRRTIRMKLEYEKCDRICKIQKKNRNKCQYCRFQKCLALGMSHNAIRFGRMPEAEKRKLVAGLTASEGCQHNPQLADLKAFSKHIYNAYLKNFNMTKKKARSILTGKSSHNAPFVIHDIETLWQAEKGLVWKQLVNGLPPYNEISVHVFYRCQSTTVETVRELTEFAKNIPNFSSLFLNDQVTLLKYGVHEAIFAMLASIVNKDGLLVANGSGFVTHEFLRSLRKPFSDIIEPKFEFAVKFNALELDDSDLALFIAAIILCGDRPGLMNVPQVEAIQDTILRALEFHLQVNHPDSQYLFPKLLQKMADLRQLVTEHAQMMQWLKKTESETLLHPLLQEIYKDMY

[2] = test system: Pparb-null OPCs; experiment: NG2/MBP dual immunofluorescence in Pparb-null OPCs transduced with PPARβ constructs; assay type: cell-based, mouse; conditions: 24 hrs
[3] = target: T2, GFPH412Lpparβ (Mus musculus, UniProt P35396, H412L); experiment: GFP-affinity purification and GCMS of Pparb-null OPCs transduced with GFPH412Lpparβ; assay type: binding
T2 construct: host or cells: Pparb-null mouse primary OPCs (lentiviral transduction)

[4] = target: H412Lpparβ (Mus musculus, UniProt P35396, H412L); experiment: PPRE-luciferase assay in Pparb-null OPCs transduced with GFPH412Lpparβ; assay type: cell-based; set-up: host or cells: Pparb-null mouse primary OPCs (lentiviral transduction); conditions: increasing doses
[5] = test system: intestinal cancer; conditions: preclinical model; cited from earlier work
[6] = test system: breast cancer; conditions: preclinical model; cited from earlier work

CCCCCCCCCCCCCCCC(=O)OC [MePA, Methyl palmitate]
PPRE-luciferase activity [1]: increased PPRE-luciferase activity | expression of MBP / differentiation ([2]; H412Lpparβ-infected Pparb-null OPCs): increased the expression of MBP | expression of MBP / differentiation ([2]; V304Mpparβ-infected Pparb-null OPCs): but not V304Mpparβ-infected | expression of MBP / differentiation ([2]; flpparβ-transduced Pparb-null OPCs): increased the expression of MBP | Adjusted Peak Area ([3]; ligand peak area divided by dodecane peak): 0.009431 | RA ([3]; relative abundance vs GFPflpparβ): 0.8732 | PPRE-luciferase activity [4]: increased PPRE-luciferase activity

Cc1cc(SCc2sc(-c3ccc(C(F)(F)F)c(F)c3)nc2C)ccc1OCC(=O)O [GW0742]
tumour promotion (intestinal cancer) [5]: stimulated intestinal cancer

Cc1cc(SCc2sc(-c3ccc(C(F)(F)F)cc3)nc2C)ccc1OCC(=O)O [GW501516]
tumour promotion (breast cancer) [6]: promoted the development of breast cancer
